For assay [1], the system named is LPS stimulated RAW264.7 macrophages. Description: TNF production by LPS stimulated RAW264.7 macrophages. It is filed as cell-based, murine. To be noted: RAW264.7, LPS, ISVD at a concentration of 0.5-1.67 μM. As for the experimental part:
FIG. 1: Inhibition of MIF's biological activities by anti-MIF ISVDs (indicated as “Nb”). […] Briefly, cells were treated with 500 nM of each anti-MIF ISVD and an irrelevant ISVD was used as a negative control. After 18 hours of incubation, cell culture supernatants were collected for the determination of TNF concentration. Data is shown as the mean±SEM. Statistical analysis was performed by comparing TNF levels of ISVD-treated LPS-stimulated cells to levels of untreated LPS-stimulated cells. The dotted line represents TNF levels (cut-off level) of mice stimulated with LPS alone. D) Inhibition of MIF D-dopachrome tautomerase activity by anti-MIF ISVDs. ISO-1 was used as positive control. The activity was determined by the semi-continuous reduction in signal (tautomerization) measured at OD450nm in the presence and absence of anti-MIF ISVDs. The % activity was expressed in relationship to the tautomerase activity of rmMIF alone. The dotted line represents 100% activity (i.e. when only MIF was used). […]
Experiments were performed using either the human monocytic cell line THP-1 (ATCC), the murine macrophage cell line RAW264.7 (ATCC) or human peripheral blood monocytic cells (PBMC's) ex vivo peritoneal exudates cells (PECs). […] Finally, the cells were resuspended in ME medium, counted and brought at a concentration of 5*10^5/ml (stock solution). […]

Assay [2] concerns the target T1, rhMIF (recombinant human MIF) (Homo sapiens, UniProt P14174).
T1 construct: recombinant human MIF^2-115 (rhMIF, R&D Systems); purchased R&D systems
T1 sequence (P14174 2-115): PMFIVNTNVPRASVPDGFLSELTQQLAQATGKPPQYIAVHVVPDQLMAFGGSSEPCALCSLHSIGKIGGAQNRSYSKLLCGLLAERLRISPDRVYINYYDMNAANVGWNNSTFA
Description: Surface plasmon resonance, binding to human MIF. To be noted: SPR, 1:1 Langmuir model. As for the experimental part:
(§1) Surface plasmon resonance (SPR) experiments were performed on a BIAcore T200 system (GE Healthcare). Recombinant mouse MIF (rmMIF) or rhMIF (R&D systems) was immobilized on a CM5 chip (GE Healthcare). Briefly, the carboxylated dextran matrix was activated by injection of 0.2 M N-ethyl-N′-(3-diethylaminopropyl) carbodiimide (EDC) and 0.05 M N-hydroxysuccinimide (NHS) at a flow rate of 5 μl/min for 7 min. A rmMIF solution of 5 μg/ml prepared in coupling buffer (50 mM sodium acetate pH 4.0) was subsequently injected until 200 R.U. was immobilised. Next, the surface immobilisation was blocked by injection of 1 M ethanolamine hydrochloride for 7 min. As a reference, the surface in another flow cell was used and treated only with EDC, NHS, and ethanolamine. Data for the rmMIF-ISVD interaction were collected in the format of a kinetic titration (27). Sensorgrams for the anti-mMIF ISVDs/ISVD-constructs were collected at five different concentrations (½ serial dilution starting from 100, 150, 200 or 750 nM) plus a 0 concentration (injection of running buffer, i.e. HBS [10 mM Hepes (pH 7.5), 150 mM NaCl, 3.5 mM EDTA, 0.005% (v/v) Tween-20]) at a flow rate of 30 μl/min and a data collection rate of 10 Hz. Analyte injections were performed with association phases of 180 s and a dissociation phase of 600 s. This was followed by 5 pulses of 15 μl regeneration buffer (HBS+100 mM NaOH). Prior to data analysis, reference and zero concentration data were subtracted from the sensorgrams. The data were analyzed with a 1:1 Langmuir binding model (27). Data for the rhMIF-ISVD interaction were collected as described elsewhere (28) and analyzed with a 1:1 Langmuir binding model.
On the technique in general: SPR reads the build-up and loss of mass on a sensor chip optically.

For assay [3], the target named is T2, recombinant mouse MIF (rmMIF) (Mus musculus, UniProt P34884).
T2 construct: purchased R&D systems
Put plainly: Surface plasmon resonance, binding to immobilized mouse MIF. To be noted: SPR, mouse MIF immobilised on CM5 chip, 1:1 Langmuir model. As to the method:
as §1

Results on one molecule are retold here after US11098113B2, “Immunoglobulin single variable domains directed against macrophage migration inhibitory factor” (VIB VZW, priority 2016, dated 2021).

B1: E10: anti-MIF immunoglobulin single variable domain (Nanobody), Family VII, SEQ ID NO: 1 (protein)
VHH: EVQLVESGGGSVQAGDSLRLSCAASGRTLSNSIMGWFRQAPGKEREFVANINWSGTSRLYADSVKGRFTISRDNTKSTVYLQMNSLKPEDTAIYYCAARSSTMSATDYWGQGTQVTVSS
modifications: Nanobody Sequence
B1 gave a TNF reduction in assay [1] of 50%. The Kon in assay [2] is 0.98 10^5M^−1s^−1; in assay [3], 0.86 10^5M^−1s^−1.
